Reference: US20130085133A1, “ANTI-VIRAL TREATMENT AND ASSAY TO SCREENFOR ANTI-VIRAL AGENT” (Sourthern Research Institute Office of Commercialization …, priority 2010, published 2013)

Assay: cytotoxicity assay (percent viability of HEp-2 cells, Cell Titer-Glo)
Details: human

Compound: COc1ccc(-c2cn3cccnc3n2)cc1 [AB00288908]
- CC50 at 6 days: > 25 µg/mL
